# Measured values published in PubChem BioAssay AID602410 (Johns Hopkins Ion Channel Center, 2012).
# By UniProt entry, the sequences of proteins in these tests, tags left out.
# UniProt O14649, whole entry: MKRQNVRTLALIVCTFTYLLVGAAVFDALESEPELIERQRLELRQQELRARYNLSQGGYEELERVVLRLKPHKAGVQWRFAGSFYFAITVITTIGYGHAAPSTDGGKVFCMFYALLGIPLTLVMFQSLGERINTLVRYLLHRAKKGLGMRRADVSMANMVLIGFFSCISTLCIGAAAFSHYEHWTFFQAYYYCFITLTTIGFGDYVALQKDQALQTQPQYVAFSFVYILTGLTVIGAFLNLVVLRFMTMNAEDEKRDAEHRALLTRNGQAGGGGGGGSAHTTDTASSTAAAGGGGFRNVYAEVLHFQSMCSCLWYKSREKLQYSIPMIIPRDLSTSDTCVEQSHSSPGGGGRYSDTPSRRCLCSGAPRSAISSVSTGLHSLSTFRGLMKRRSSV
# This is a selection; strong and weak results do not stand in their true shares. The source made the active and inactive calls.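 How the source made its calls: active means B-score under library mean minus 4 SD, starting fluorescence ratio at most library mean plus 5 SD; inactive means the rest.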
# Target: Potassium channel subfamily K member 3 (Homo sapiens) (UniProt O14649)
# Assay: blockers of TASK1 two-pore potassium channel – CHO cells, FluxOR thallium flux, B-score, primary screen (AID 602410)
# Details: CHO-KCNK3 thallium flux, FluxOR fluorescence; at 10 µM
row,Compound,outcome
1,CP(=O)(Nc1ccc(SC(F)(F)F)cc1)Oc1ccc(Cl)cc1 (stereo not given),inactive
2,Cc1cccc(C)c1OP(C)(=O)Nc1ccc(SC(F)(F)F)cc1 (stereo not given),inactive
3,COP1(=S)c2c(C)nn(CCC#N)c2N=C(c2ccc(F)cc2)N1C (stereo not given),inactive
4,COc1ccccc1OP(C)(=O)Nc1ccccc1 (stereo not given),inactive
5,Cc1cc(SC(NC=O)C(Cl)(Cl)Cl)ncn1 (stereo not given),inactive
6,O=P(Nc1ccccn1)(c1cccc2ccccc12)c1cccc2ccccc12,inactive
7,O=[N+]([O-])c1ccc(Nc2ccc(Oc3ccc([N+](=O)[O-])cc3[N+](=O)[O-])cc2)c([N+](=O)[O-])c1,inactive
8,CP(=O)(Nc1ccccc1Br)Oc1ccccc1 (stereo not given),inactive
9,CP(=S)(Nn1cnnc1)Oc1ccccc1 (stereo not given),inactive
10,CCOC(=O)Nc1cccc([As](=O)(O)O)c1,inactive
11,Cc1cc(SC(NC(=O)c2ccccc2)C(Cl)(Cl)Cl)nc(C(C)C)n1 (stereo not given),inactive
12,CCCCOc1ccc(C(=O)NCC2(N3CCCCC3)CCCCC2)cc1OC,inactive
13,CCOC(=O)Nc1ccc([As](=O)(O)O)c(O)c1,inactive
14,CC1CCNP(=O)(N(CCCl)CCCl)O1 (stereo not given),inactive
15,O=[N+]([O-])c1cc([N+](=O)[O-])c(-c2ccn[nH]2)s1,inactive
16,COc1ccc(OP(C)(=O)Nc2cccc(F)c2)cc1 (stereo not given),inactive
17,O=C(OC1CN2CCC1CC2)c1cccc2[nH]cnc12 (stereo not given),inactive
18,CCN(CC)C(=S)SC(NC=O)C(Cl)(Cl)Cl (stereo not given),inactive
19,CC(C)NC(=O)NP(=O)(Oc1ccccc1)Oc1ccccc1,inactive
20,COc1ccccc1OP(C)(=O)Nc1cc(Cl)ccc1C (stereo not given),inactive
21,Cc1cc(C)cc(OP(C)(N)=O)c1 (stereo not given),inactive
22,ClCCSc1nnc(-c2cccnc2)o1,inactive
23,CCOC(=O)c1ccc(NP(C)(=O)Oc2ccccc2)cc1 (stereo not given),inactive
24,CC(C)c1ccc(OP(=O)(Nc2ccccn2)Oc2ccccc2F)cc1 (stereo not given),inactive
25,Cc1ccc(NP(C)(=O)Oc2ccccc2)c(C)c1 (stereo not given),inactive
26,COC(=O)C1(C)COP(=O)(N2CCCCCC2)OC1 (stereo not given),inactive
27,COc1ccccc1OP(C)(=O)Nc1ccc(C)cc1 (stereo not given),inactive
28,Cc1cccc(C)c1OP(C)(N)=O (stereo not given),inactive

row,Compound,outcome
1,CC(C)(C)c1ccc(OP(C)(=O)Nc2ccc(SC(F)(F)F)cc2)cc1 (stereo not given),inactive
2,Cc1ccc(OP(=O)(Nc2ccc([N+](=O)[O-])cn2)Oc2ccc(C)cc2)cc1,inactive
3,Cc1ccc2nc3c(c(C)c2c1)CC(C(Cl)Cl)S3 (stereo not given),inactive
4,O=[N+]([O-])c1ccc2c(c1)C=Nc1ccccc1O2,inactive
5,O=[N+]([O-])c1cc([N+](=O)[O-])c(Nc2cccnc2)c([N+](=O)[O-])c1,inactive
6,COc1cc(C(=O)NCC2(N3CCOCC3)CCCCC2)ccc1OCC(C)C,inactive
7,O=[N+]([O-])c1ccc(-c2cc([N+](=O)[O-])c(O)c([N+](=O)[O-])c2)cc1,inactive
8,O=[As](O)(c1ccc(O)cc1)c1ccccc1O,inactive
9,C[As](=O)(O)c1cccc(C(=O)O)c1,inactive
10,O=[N+]([O-])c1cc(Oc2ccc([N+](=O)[O-])cc2C(F)(F)F)cc([N+](=O)[O-])c1,inactive
11,COc1ccc(N/C(=N/P(=O)(N2CCOCC2)N2CCOCC2)N2CCOCC2)cc1,inactive
12,O=P1(N(CCCl)CCCl)OCCCN1CCCl (stereo not given),inactive
13,O=P1(N(CCCl)CCCl)Nc2ccccc2N1,inactive
14,COc1cc(I)ccc1[As](=O)(O)O,inactive
15,COc1ccc2nc(NP(=O)(c3ccccc3)c3ccccc3)sc2c1,inactive
16,Cc1c2c(nc3ccccc13)SC(C(Cl)Cl)C2 (stereo not given),inactive
17,CCN(CC)CCCOC(=O)C(O)(c1ccccc1)c1ccccc1,inactive
18,Cc1cc(=O)[nH]c(N[N+](=O)[O-])n1,inactive
19,O=C(OC1CN2CCC1CC2)C12CC3CC(CC(C3)C1)C2 (stereo not given),inactive
20,CCOP(=O)(Nc1cccc2ccccc12)OCC,inactive
21,Nc1cccc2c([As](=O)(O)O)cccc12,inactive
22,Cc1ccc(NCCc2c([N+](=O)[O-])cc([N+](=O)[O-])cc2[N+](=O)[O-])cc1,inactive
23,CP(=O)(Nc1cccc(Br)c1)Oc1ccccc1 (stereo not given),inactive
24,Cc1cc(C)cc(OP(C)(=O)Nc2ccccn2)c1 (stereo not given),inactive
25,CCCOP(=S)(Nc1nc(N)cc(=O)[nH]1)OCCC,inactive
26,Cc1ccc(C)c(NP(C)(=O)Oc2ccccc2)c1 (stereo not given),inactive
27,Cc1cc(C)cc(OP(C)(=O)Nc2ccc(C)cc2C)c1 (stereo not given),inactive
